Experimental data: PubChem BioAssay AID2732 (Emory University Molecular Libraries Screening Center, 2010)
Only a part is listed here, and it is no random draw. Calls of active or inactive are those of the source.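 How the source made its calls: active means compounds that reduced the stress-induced luciferase reporter signal by more than about 70% of percent inhibition (limit read from the data); inactive means the rest.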

Test: blockers of ER-stress CHOP reporter expression – cell-based, unfolded protein response, luciferase reporter, primary screen (AID 2732);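 further: 0% = tunicamycin plus vehicle and 100% = wells without tunicamycin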
Conditions: CHO-K1 CHOP-promoter luciferase, tunicamycin-induced, 15-18 h; at 10 µM; hits give high values
In the case of CP(=O)(Oc1ccccc1)OC(c1ccccc1)C(F)(F)F (stereo not given), the inhibition is reported as inactive: 0.71%.
In the case of CP(=O)(NC(=O)Nc1ccccc1)Oc1ccccc1 (stereo not given), the inhibition is reported as inactive: -8.03%.
For CCc1ccc(OP(C)(=O)N2CCN(c3ccc([N+](=O)[O-])cc3)CC2)cc1 (stereo not given), the inhibition was inactive: 9.94%.
In the case of Cc1cc(C)cc(OP(C)(=O)Nc2ccc(SC(F)(F)F)cc2)c1 (stereo not given), the inhibition is reported as active: 70.3%.
With Cc1nc2ccc3ccccc3c2s1.O=[N+]([O-])c1cc([N+](=O)[O-])c(O)c([N+](=O)[O-])c1 the inhibition was inactive: 46.5%.
With O=[N+]([O-])c1cc([N+](=O)[O-])c(-n2nnc3ccccc32)c([N+](=O)[O-])c1 the inhibition was inactive: 29.1%.
In the case of CN1CCCCC1COC(=O)C1(O)c2ccccc2CCc2ccccc21 (stereo not given), the inhibition is reported as inactive: 15%.
With COc1ccccc1OP(C)(=O)Nc1c(C)cccc1C (stereo not given) the inhibition was inactive: 8.48%.
In the case of CCCOc1ccc(NP(C)(=O)Oc2ccc(Cl)cc2)cc1 (stereo not given), the inhibition is reported as inactive: -2.26%.
For CP(=O)(Nc1ccc(SC(F)(F)F)cc1)Oc1ccccc1 (stereo not given), the inhibition was inactive: 40.2%.
For O=[N+]([O-])c1cc([N+](=O)[O-])c(Nc2nnnn2CCO)c([N+](=O)[O-])c1, the inhibition was inactive: -14.6%.
For CCOC(=O)C(CC)C1=NC(C)(C)Cc2ccccc21.O=[N+]([O-])c1cc([N+](=O)[O-])c(O)c([N+](=O)[O-])c1 (stereo not given), the inhibition was inactive: 4.02%.
With CC1=NCCc2c1[nH]c1ccccc21.O=[N+]([O-])c1cc([N+](=O)[O-])c(O)c([N+](=O)[O-])c1 the inhibition was inactive: 12%.
In the case of O=C(O)c1cccc(Nc2c([N+](=O)[O-])cc([N+](=O)[O-])cc2[N+](=O)[O-])c1, the inhibition is reported as inactive: -23.2%.
In the case of Cc1cc(C)cc(OP(C)(=O)Nc2ccccn2)c1 (stereo not given), the inhibition is reported as inactive: 28.1%.
For CP(=O)(Nc1cccc(Br)c1)Oc1ccccc1 (stereo not given), the inhibition was inactive: 4.85%.
In the case of Cc1ccc(C)c(NP(C)(=O)Oc2ccccc2)c1 (stereo not given), the inhibition is reported as inactive: 3.23%.
In the case of COc1ccccc1OP(C)(=O)Nc1cccc(Br)c1 (stereo not given), the inhibition is reported as inactive: 39.1%.
For Cc1cc(C)cc(OP(C)(=O)Nc2ccc(C)cc2C)c1 (stereo not given), the inhibition was inactive: 10.3%.
In the case of CCOC(=O)c1ccc(NP(C)(=O)Oc2cc(C)cc(C)c2)cc1 (stereo not given), the inhibition is reported as inactive: 44.3%.
